Data taken from patent US9718861B2 (Universitaet Leipzig, priority 2011, dated 2017).
“Also recorded” adds a separate entry of the source.

Protein sequences, listed by entry. Tags and fused reporters are not part of them.
UniProt Q92847, whole entry: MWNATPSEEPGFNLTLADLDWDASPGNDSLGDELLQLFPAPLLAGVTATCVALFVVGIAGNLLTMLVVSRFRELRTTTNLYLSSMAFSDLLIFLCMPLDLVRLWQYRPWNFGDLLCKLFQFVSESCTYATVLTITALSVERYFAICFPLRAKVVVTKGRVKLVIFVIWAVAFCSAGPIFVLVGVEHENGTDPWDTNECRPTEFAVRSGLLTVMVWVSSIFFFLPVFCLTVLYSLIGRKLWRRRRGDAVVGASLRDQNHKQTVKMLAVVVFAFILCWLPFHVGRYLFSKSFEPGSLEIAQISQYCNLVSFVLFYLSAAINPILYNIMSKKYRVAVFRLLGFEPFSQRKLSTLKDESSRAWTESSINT

Biological target: ghrelin receptor (Homo sapiens, UniProt Q92847)
Assay: Inositol trisphosphate turnover assay in COS-7 cells transfected with the ghrelin receptor
Format: cell-based
Design: expressed in transfected cells
Conditions: for Emax ± SEM: efficacy, difference to constitutive activity (Table 2)

Emax ± SEM (inverse agonistic activity)	EC50 (inverse agonistic activity, analogs KxFwLL-NH2 (Table 2), mean ± SEM of n experiments) [µM]	x-fold (Emax) (shift in efficacy compared to KwFwLL-NH2, inverse agonistic activity) [x-fold]	x-fold (EC50) (shift in potency compared to KwFwLL-NH2, inverse agonistic activity) [x-fold]	Emax (COS-7, inverse agonistic activity, read-out: efficacy (Emax)) [%]	increase in activity compared with peptide 2 (KwFwLL-NH2) (inverse agonistic activity) [fold]	x-fold (EC50) (shift in potency compared to ghrelin, agonistic activity) [x-fold]	Compound	activity at the ghrelin receptor (in words)
76 ± 5 Δ %	0.624	2.1	13.7	–	–	–	CC(C)C[C@H](NC(=O)[C@H](CC(C)C)NC(=O)[C@@H](Cc1c[nH]c2ccccc12)NC(=O)[C@H](Cc1ccccc1)NC(=O)[C@@H](Cc1ccc(C(C)(C)C)cc1)NC(=O)[C@@H](N)CCCCN)C(N)=O [Peptide 10, K-(D-tBf)-FwLL-NH2]	severe loss of activity
81 ± 2 Δ %	–	–	–	> 80	8.0	–	CC(C)C[C@H](NC(=O)[C@H](CC(C)C)NC(=O)[C@@H](Cc1c[nH]c2ccccc12)NC(=O)[C@H](Cc1ccccc1)NC(=O)[C@@H](Cc1csc2ccccc12)NC(=O)[C@@H](N)CCCCN)C(N)=O [Peptide 4, K-(D-Bth)-FwLL-NH2]	–
–	–	–	–	–	–	>700	CC(C)C[C@H](NC(=O)[C@H](CC(C)C)NC(=O)[C@@H](Cc1csc2ccccc12)NC(=O)[C@H](Cc1ccccc1)NC(=O)[C@@H](Cc1c[nH]c2ccccc12)NC(=O)[C@@H](N)CCCCN)C(N)=O [Peptide 17, KwF-(D-Bth)-LL-NH2]	no activity; also recorded: total loss of activity
